Protein sequences, listed by entry. Tags and fused reporters are not part of them. Residues count along the entry.
UniProt P23385, 19-1199 limits assumed: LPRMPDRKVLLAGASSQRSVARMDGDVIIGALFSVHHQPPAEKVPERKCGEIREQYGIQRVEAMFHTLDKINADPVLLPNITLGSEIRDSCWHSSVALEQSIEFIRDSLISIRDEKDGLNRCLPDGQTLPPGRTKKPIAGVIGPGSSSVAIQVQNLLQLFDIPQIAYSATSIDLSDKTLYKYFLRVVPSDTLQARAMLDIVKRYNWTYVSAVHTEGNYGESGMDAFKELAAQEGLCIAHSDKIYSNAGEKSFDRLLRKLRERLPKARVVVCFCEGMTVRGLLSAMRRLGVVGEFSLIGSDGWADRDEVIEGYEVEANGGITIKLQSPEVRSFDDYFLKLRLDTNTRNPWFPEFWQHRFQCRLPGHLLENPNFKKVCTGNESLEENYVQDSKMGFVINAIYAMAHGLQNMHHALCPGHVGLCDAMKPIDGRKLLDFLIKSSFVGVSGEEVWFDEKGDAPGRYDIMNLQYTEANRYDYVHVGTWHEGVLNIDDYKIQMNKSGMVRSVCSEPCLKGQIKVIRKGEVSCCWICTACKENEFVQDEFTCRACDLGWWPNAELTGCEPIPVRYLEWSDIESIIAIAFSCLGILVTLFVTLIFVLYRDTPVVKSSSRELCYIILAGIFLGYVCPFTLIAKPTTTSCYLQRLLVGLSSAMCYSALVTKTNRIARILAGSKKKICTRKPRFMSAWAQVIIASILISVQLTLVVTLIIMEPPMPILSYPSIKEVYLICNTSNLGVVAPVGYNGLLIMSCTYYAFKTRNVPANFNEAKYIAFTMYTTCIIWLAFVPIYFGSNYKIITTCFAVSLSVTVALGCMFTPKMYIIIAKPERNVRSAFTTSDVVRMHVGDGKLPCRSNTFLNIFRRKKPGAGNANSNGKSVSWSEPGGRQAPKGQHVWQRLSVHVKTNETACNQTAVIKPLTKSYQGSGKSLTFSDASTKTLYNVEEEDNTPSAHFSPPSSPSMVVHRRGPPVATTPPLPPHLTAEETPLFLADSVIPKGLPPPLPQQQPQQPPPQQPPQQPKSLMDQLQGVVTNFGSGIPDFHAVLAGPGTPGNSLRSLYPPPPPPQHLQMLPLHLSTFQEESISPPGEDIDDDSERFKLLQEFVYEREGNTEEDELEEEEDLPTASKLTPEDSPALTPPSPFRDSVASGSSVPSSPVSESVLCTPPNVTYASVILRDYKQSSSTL

In patent US7629468B2 (Janssen Pharmaceutica NV, priority 2003, dated 2009):

The compounds below were run against cloned rat mGluR1 receptor (Rattus norvegicus, UniProt P23385) (assay: Signal transduction at the cloned rat mGluR1 receptor in CHO cells (glutamate-induced intracellular Ca2+ rise, FLIPR)). Conditions: 50% inhibition of glutamate-induced intracellular Ca2+ rise, CHO cells expressing mGluR1, compounds added for 20 minutes.
Format: cell-based
With `CCc1cc2cc(C(=O)Cc3ccccc3)ccc2nc1Cl` the pIC50 was 7.35.
`O=C(CC1(F)CC2CCC1C2)c1ccc2nc3c(cc2c1)CCCO3` (centres unmarked) gave a pIC50 of 7.34.
`O=C(Cc1ccc(F)c(F)c1)c1ccc2nc3c(cc2c1)CCCO3` gave a pIC50 of 7.13.
`CCCc1cc2cc(C(=O)CC3CC4CCC3C4)ccc2nc1C` (centres unmarked) showed a pIC50 of 7.11.
Compound `CCc1cc2cc(C(=O)CC3CC4CCC3C4)ccc2nc1C` (centres unmarked) has a pIC50 of 7.22.
